The text below walks through data of ChEMBL document CHEMBL1132956 (2000).

The chains behind the UniProt entries cited, without tags or fusion partners.
UniProt P23219, whole entry: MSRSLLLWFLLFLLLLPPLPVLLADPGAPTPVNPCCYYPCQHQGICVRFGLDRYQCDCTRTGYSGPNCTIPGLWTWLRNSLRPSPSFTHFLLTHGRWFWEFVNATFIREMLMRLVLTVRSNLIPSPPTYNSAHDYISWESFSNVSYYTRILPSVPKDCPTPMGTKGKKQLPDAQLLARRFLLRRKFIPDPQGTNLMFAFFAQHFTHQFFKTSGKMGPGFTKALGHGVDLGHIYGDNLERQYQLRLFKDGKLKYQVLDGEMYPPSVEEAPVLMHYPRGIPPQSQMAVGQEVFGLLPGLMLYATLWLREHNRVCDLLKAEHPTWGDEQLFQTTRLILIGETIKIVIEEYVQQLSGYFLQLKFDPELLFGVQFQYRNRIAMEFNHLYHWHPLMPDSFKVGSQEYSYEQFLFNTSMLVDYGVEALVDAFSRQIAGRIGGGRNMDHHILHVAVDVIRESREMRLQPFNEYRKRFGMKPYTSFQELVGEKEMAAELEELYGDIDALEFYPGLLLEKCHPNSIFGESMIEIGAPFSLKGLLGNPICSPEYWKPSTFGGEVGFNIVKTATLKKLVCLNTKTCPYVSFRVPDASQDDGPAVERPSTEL

The assay has as its target Prostaglandin G/H synthase 1 (Homo sapiens, UniProt P23219).

In general, IC50 refers to the concentration that inhibits the measured activity by half. A lower IC50 goes with greater potency in that assay.

`Cc1onc(-c2ccccc2)c1-c1ccc(S(N)(=O)=O)cc1` [VALDECOXIB] yielded a half-inhibitory concentration (IC50) of 140 µM.
